Earlier results, collected in patent US7135488B2, “Pyrrolyl-thiazole derivatives” (Hoffmann-La Roche Inc., priority 2003, dated 2006).

Chains of the proteins cited; added tags and fusions are not shown.
UniProt P47746, whole entry: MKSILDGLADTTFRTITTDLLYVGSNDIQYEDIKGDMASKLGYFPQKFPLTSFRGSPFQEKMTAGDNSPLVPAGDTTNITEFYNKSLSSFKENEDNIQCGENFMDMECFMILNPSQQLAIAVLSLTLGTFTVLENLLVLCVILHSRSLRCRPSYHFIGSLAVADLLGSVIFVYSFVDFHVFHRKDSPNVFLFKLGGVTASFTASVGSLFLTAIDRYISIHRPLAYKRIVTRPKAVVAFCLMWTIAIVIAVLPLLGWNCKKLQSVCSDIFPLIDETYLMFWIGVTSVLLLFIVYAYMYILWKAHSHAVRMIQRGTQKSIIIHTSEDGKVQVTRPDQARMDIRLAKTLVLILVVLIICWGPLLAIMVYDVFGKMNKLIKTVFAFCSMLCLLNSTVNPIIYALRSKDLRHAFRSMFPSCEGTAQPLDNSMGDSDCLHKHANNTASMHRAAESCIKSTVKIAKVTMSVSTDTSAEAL

Biological target: CB1 receptor (Mus musculus, UniProt P47746)
Details: wild-type versus CB1 receptor knockout mice; cited from earlier work

SMILES: Cc1c(C(=O)NN2CCCCC2)nn(-c2ccc(Cl)cc2Cl)c1-c1ccc(Cl)cc1 [SR141716A]
- food intake: reduces food intake in wild-type but not knockout mice
